Experimental data reported in IntAct's records for PubMed 18723682.

B1: Vacuolar protein sorting-associated protein 75 (Saccharomyces cerevisiae), P53853 (parent)
chain: MMSDQENENEHAKAFLGLAKCEEEVDAIEREVELYRLNKMKPVYEKRDAYIDEIAEFWKIVLSQHVSFANYIRASDFKYIDTIDKIKVEWLALESEMYDTRDFSITFHFHGIEGDFKEQQVTKVFQIKKGKDDQEDGILTSEPVPIEWPQSYDSINPDLIKDKRSPEGKKKYRQGMKTIFGWFRWTGLKPGKEFPHGDSLASLFSEEIYPFCVKYYAEAQRDLEDEEGESGLSADGDSEDDDGSLGEVDLPLSDEEPSSKKRKV

Variants of: B1
Details: with rt109_yeast RTT109, Q07794

Variant | effect of a mutation on the interaction
MMSDQENENEHAKAFLGLAKCEEEVDAIEREVELYRLNKMKPVYEKRDAYIDEIAEFWKIVLSQHVSFANYIRASDFKYIDTIDKIKVEWLALESEMYDTRDFSITFHFHGIEGDFKEQQVTKVFQIKKGKDDQEDGILTSEPVPIEWPQSYDSINPDLIKDKRSPEGKKKYEQGMETIFGWFRWTGLKPGKEFPHGDSLASLFSEEIYPFCVKYYAEAQRDLEDEEGESGLSADGDSEDDDGSLGEVDLPLSDEEPSSKKRKV [R173E;K177E] | decreasing interaction
MMSDQENENEHAKAFLGLAKCEEEVDAIEREVELYRLNKMKPVYEKRDAYIDEIAEFWKIVLSQHVSFANYIRASDFKYIDTIDKIKVEWLALESEMYDTRDFSITFHFHGIEGDFKEQQVTKVFQIKKGKDDQEDGILTSEPVPIEWPQSYDSINPDLIKDKRSPEGKKKYRQGMKTIFGWFRWTGLKPGKEFPHGDSLASLFSEEIYPFCVKYYAKAQRKLEDEEGESGLSADGDSEDDDGSLGEVDLPLSDEEPSSKKRKV [E218K;D222K] | disrupting interaction
